Assay results: BindingDB's records for doi:10.7270/Q2CC0Z29 (Ambit Biosciences, 2008)

Chains of the proteins cited; added tags and fusions are not shown. A line that says so, or that is headed by a name, gives the form on record, which may keep a tag or linker.
UniProt Q15349, as listed by the source: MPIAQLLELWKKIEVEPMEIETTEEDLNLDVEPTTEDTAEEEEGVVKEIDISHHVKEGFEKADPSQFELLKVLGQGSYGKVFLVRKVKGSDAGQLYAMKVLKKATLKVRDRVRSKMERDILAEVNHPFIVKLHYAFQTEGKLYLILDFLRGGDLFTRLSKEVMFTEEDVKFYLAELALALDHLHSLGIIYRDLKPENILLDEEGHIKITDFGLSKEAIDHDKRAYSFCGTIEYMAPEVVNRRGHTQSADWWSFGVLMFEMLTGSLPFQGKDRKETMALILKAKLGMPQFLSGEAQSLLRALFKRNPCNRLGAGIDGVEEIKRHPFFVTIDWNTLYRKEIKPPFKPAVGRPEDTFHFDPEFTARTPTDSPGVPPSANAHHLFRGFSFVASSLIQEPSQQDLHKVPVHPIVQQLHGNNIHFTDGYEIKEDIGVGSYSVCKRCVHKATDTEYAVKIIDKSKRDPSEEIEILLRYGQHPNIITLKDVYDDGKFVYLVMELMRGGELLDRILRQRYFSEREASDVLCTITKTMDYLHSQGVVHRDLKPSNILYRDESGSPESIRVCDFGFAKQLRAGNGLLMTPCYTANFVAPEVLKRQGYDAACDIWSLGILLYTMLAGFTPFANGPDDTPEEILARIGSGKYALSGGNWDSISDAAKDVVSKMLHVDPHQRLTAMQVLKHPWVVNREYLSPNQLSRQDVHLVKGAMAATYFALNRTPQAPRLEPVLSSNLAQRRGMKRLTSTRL

Target: Isoform 3 of Ribosomal protein S6 kinase alpha-2 (3) (Homo sapiens, UniProt Q15349)
Assay: PubChem AID 1433

- Ki: 1100 µM
Compound: CCN1CCN(Cc2ccc(NC(=O)Nc3ccc(Oc4cc(NC)ncn4)cc3)cc2C(F)(F)F)CC1
